The record followed here is article PMC6015732.

Protein sequences, listed by entry. Tags and fused reporters are not part of them. Residues count along the entry.
UniProt P02745, 23-245: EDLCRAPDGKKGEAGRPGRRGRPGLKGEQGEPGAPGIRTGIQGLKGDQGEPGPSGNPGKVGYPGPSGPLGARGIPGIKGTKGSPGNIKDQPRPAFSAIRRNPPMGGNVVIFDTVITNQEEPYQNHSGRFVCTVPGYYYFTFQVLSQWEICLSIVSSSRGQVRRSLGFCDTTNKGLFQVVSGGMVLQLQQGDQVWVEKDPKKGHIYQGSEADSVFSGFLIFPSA
human complement component C1q, UniProt P02746, 28-253: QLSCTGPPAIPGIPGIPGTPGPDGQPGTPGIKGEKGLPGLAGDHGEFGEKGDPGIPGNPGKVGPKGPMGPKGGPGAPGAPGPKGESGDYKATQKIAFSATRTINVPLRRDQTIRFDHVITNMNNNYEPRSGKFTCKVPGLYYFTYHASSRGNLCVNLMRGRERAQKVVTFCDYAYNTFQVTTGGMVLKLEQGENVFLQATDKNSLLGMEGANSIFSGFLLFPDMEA
human complement component C1q, UniProt P02747, 29-245: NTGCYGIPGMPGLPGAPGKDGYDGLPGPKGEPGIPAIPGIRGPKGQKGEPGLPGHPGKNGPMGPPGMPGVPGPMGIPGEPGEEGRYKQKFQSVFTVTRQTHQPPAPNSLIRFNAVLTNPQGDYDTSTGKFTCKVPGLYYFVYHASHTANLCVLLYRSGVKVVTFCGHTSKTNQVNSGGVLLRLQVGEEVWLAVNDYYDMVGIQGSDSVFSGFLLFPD

pKd: −log10 of the molar value.

Common to all, as to experiment: SPR
Test [1] has as its target RA802 (Rituxan clone 802, aglycosylated) (human).
Test [2] addresses RG801 (Fc domain of glycosylated clone 801 constructed with the Fab arms of Rituxan) (human).
In test [3] the target is RA801 (Fc domain of aglycosylated clone 801 constructed with the Fab arms of Rituxan) (human).

The term pKd denotes the Kd on a negative log10 scale, so that one unit is a factor of ten. On to “human complement component C1q (from UniProt P02745 23-245; P02746 28-253; P02747 29-245) (complex)”, for which the pKd in test [1] was 9.84; in test [2] it was 9.41; in test [3], 9.97.
